In ChEMBL document CHEMBL1932917, “4,5-dihydropyridazin-3-one derivatives as histamine H₃ receptor inverse agonists” (Bioorg Med Chem Lett, 2012):

Assay: Clearance in rat at 1 mg/kg, iv
Format: ADME, organism-based
Parameters: dose 1 mg/kg, route intravenous
Conditions: in vivo

CC1CC(=O)NN=C1c1ccc(OCCCN2CCC[C@H]2C)cc1 (stereo in doubt; 19a)
clearance: 1.32 L/h/kg
